Assay results from patent publication US5672582A, “Thrombin inhibitors” (Merck & Co., Inc., priority 1994, dated 1997).

Chains of the proteins cited; added tags and fusions are not shown. Residues count along the entry.
UniProt P00760, 24-246 limits assumed: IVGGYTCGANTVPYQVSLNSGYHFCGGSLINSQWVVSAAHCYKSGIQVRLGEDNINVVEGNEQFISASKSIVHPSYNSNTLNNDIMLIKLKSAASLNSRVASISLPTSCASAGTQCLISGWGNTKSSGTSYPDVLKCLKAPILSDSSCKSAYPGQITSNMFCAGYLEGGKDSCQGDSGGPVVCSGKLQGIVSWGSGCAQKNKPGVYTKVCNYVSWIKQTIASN

Tests used:
human α-thrombin = human α-thrombin (Homo sapiens, UniProt P00734); assay: Proteinase inhibition assay, human α-thrombin; settings: for Ratio / Ki: Table 1; for Ratio: Ki trypsin / Ki thrombin; for Ki: read-out: Ki (μM) Thrombin, 25° C., 0.05M TRIS pH 7.4, 0.15M NaCl, 0.1% PEG
bovine trypsin = bovine trypsin (Bos taurus, UniProt P00760); assay: Proteinase inhibition assay, bovine trypsin; settings: read-out: Ki (μM) Trypsin; Table 1; 25° C., 0.05M TRIS pH 7.4, 0.15M NaCl, 0.1% PEG, 1 mM CaCl2
Protocol: Assays of human α-thrombin and bovine trypsin were performed at 25° C. in 0.05M TRIS buffer pH 7.4, 0.15M NaCl, 0.1% PEG. Trypsin assays also contained 1 mM CaCl2.
In assays wherein rates of hydrolysis of a p-nitroanilide (pna) substrate were determined, a Thermomax 96-well plate reader was used was used to measure (at 405 nm) the time dependent appearance of p-nitroaniline. sar-PR-pna was used to assay human α-thrombin (Km =125 μM) and bovine trypsin (Km =125 μM). "Sar" is the three letter abbreviation for the amino acid sarcosine (N-methylglycine). p-Nitroanilide substrate concentration was determined from measurements of absorbance at 342 nm using an extinction coefficient of 8270 cm^-1 M^-1.
Activity assays were performed by diluting a stock solution of substrate at least tenfold to a final concentration <0.1 Km into a solution containing enzyme or enzyme equilibrated with inhibitor. Times required to achieve equilibration between enzyme and inhibitor were determined in control experiments. Initial velocities of product formation in the absence (Vo) or presence of inhibitor (Vi) were measured. Assuming competitive inhibition, and that unity is negligible compared Km /[S], [S]/e, and [I]/e (where [S], [I], and e respectively represent the total concentrations, of substrate, inhibitor and enzyme), the equilibrium constant (Ki) for dissociation of the inhibitor from the enzyme can be obtained from the dependence of Vo /Vi on [I] shown in equation 1.
Using the assays described above, the following additional embodiments of the invention were evaluated and shown to be selective for inhibiting thrombin. The constants were determined at pH 7.4 in buffer containing 0.05M Tris, 0.15M NaCl, 0.1% PEG-8000 at room temperature. "ni" denotes Ki >10 μM.

SMILES | Ratio (human α-thrombin) | Ki (human α-thrombin) [nM] | Ki (bovine trypsin) [µM] | Thrombin inhibitor potency of the two isomers compared (human α-thrombin; 4-4 (L) versus 4-3 (D) at Acg center)
NC(=O)[C@H](NC(=O)[C@@H]1CCCN1C(=O)[C@H](N)Cc1ccccc1)[C@H]1CC[C@H](N)CC1 | 267 | 3 | 0.8 | 
NC(=O)[C@H](C[C@H]1CC[C@H](N)CC1)NC(=O)[C@@H]1CCCN1C(=O)[C@H](N)Cc1ccccc1 | 17 | 18.6 | 0.313 | 
CNC(=O)C(=O)[C@@H](NC(=O)[C@@H]1CCCN1C(=O)[C@@H](Cc1ccccc1)NC)[C@H]1CC[C@H](N)CC1 | 12790 | 0.09 |  | more potent thrombin inhibitor
CNC(=O)C(=O)[C@H](NC(=O)[C@@H]1CCCN1C(=O)[C@@H](Cc1ccccc1)NC)[C@H]1CC[C@H](N)CC1 | 2121 | 3.3 |  | 
CN[C@H](Cc1ccccc1)C(=O)N1CCC[C@H]1C(=O)N[C@@H](C[C@H]1CC[C@H](N)CC1)C(=O)C(=O)O | 45 | 9.4 | 0.42 | 
NC(=O)[C@@H](NC(=O)[C@@H]1CCCN1C(=O)[C@H](N)Cc1ccccc1)[C@H]1CC[C@H](N)CC1 | 9 | 43 | 0.408 | 
